Measured values as given in PubChem BioAssay AID504660 (National Center for Advancing Translational Sciences (NCATS), 2011).
“And” between values parts separate entries of the source, which are not always exact repeats. Equal entries are not always repeated. The entries are a selection whose mix differs from that of the whole data set. Some tests of the compounds listed are not included; inactive here does not mean inactive elsewhere. The source made the active and inactive calls. Cut-off read from the data, not from the text of the source: active = activation above about 30%; inactive = the rest.
Note: 0% is about no effect.

The chains behind the UniProt entries cited, without tags or fusion partners.
UniProt P21728, whole entry: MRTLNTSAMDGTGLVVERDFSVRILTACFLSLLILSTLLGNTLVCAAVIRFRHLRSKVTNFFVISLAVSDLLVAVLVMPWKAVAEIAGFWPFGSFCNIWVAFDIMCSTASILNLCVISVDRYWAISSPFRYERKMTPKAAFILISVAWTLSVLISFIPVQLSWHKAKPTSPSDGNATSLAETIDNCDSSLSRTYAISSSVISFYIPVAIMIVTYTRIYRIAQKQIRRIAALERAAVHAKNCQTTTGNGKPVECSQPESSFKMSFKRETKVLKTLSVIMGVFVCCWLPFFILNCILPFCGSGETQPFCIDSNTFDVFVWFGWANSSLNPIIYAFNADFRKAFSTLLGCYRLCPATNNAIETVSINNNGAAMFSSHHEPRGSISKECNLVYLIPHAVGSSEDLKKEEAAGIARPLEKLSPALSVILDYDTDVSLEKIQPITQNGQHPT

What follows are compounds tested against D(1A) dopamine receptor (Homo sapiens) (UniProt P21728) (assay: Allosteric Agonists of the Human D1 Dopamine Receptor: qHTS). Conditions: HEK293 T-REx D1 cells, calcium flux, agonist mode; at 2 µM; hits give high values.
Excerpt: NIH Chemical Genomics Center [NCGC] NIH Molecular Libraries Probe Centers Network [MLPCN] MLPCN Grant: NS064831-01 Assay Submitter (PI): David Sibley Dopamine receptors (DARs) are involved in the etiology and/or therapy of a number of neuropsychiatric and endocrine disorders. For instance, all receptor-based antiparkinsonian drugs work via stimulating the D1 DAR subtype whereas all FDA-approved antipsychotic agents are antagonists of this receptor. […] There are three different types of allosteric modulators that we are seeking, two of which will stimulate or augment receptor signaling, allosteric agonists and potentiators, while the third, allosteric antagonists, will attenuate receptor signaling. The present primary screening assay measures compound agonism by tracking calcium flux in a […], inducible Hek293 Trex D1 cell line.
Freshly passaged cells are plated in 1536 well black, clear bottom plates at a density of 4000 cells/well in 3 ul of complete media containing 1x tetracycline inducer. After an overnight incubation at […] in 5% CO2, cells are loaded with 2 ul of the no wash Calcium Assay Kit (ABD Bioquest) and incubated at room temperature for 30 to 90 minutes. Agonist read: A 10 cycle (1 second/cycle) baseline measurement is taken and then the FDSS online 1536 pintool delivers 23 nl of compound library (as well as dopamine controls) to the plate. The plate is measured for kinetically at 1 cycle/sec for 180 seconds and is considered to be the agonist portion of the assay (eg, compounds which activate a positive calcium response during this portion are flagged as potential agonists). Following the 180 second read, 1 ul of either an EC20 (positive modulation assay) or EC80 (negative modulation assay) is delivered by an onboard pipette head. Measurements are taken kinetically for an additional 180 seconds.
For `CN(C)C1(CNC(=O)c2ccc(Br)cc2)CCCCC1`, the activation was inactive: 11.1%. `COc1cc(C(=O)NCC2(N(C)C)CCCCC2)c([N+](=O)[O-])cc1OC` was tested, and the activation was inactive: 1.02%. With `COc1cccc(C(=O)NCC2(N3CCCCC3)CCCCC2)c1` the activation was inactive: 3.69%. `COc1ccc(Cl)cc1C(=O)NCC1(N(C)C)CCCCC1` was tested, and the activation was inactive: 2.47%. For `COc1ccc(C(=O)NCC2(N(C)C)CCCCC2)cc1Cl`, the activation was inactive: -0.29%. For `O=C(NCC1(N2CCCCC2)CCCCC1)c1cccc(Cl)c1`, the activation was inactive: 1.51%. In the case of `COc1cccc(C(=O)NCC2(N3CCOCC3)CCCCC2)c1`, the activation is reported as inactive: -0.963%. `O=C(OC1CN2CCC1CC2)C(CO)(c1ccccc1)c1ccccc1` (centres undefined) was tested, and the activation was inactive: 1.31%. For `CC(C)COc1ccc(C(=O)NCC2(N(C)C)CCCCC2)cc1`, the activation was inactive: 13.3%. With `Cc1cccc(C(=O)NCC2(N(C)C)CCCCC2)c1` the activation was inactive: 2.23%. With `COc1cc(C(=O)NCC2(N(C)C)CCCCC2)cc(OC)c1OC` the activation was inactive: 0.379%. With `COc1ccc(Br)c(C(=O)NCC2(N3CCCCC3)CCCCC2)c1` the activation was inactive: 2.34%. `CC(C)Oc1ccc(C(=O)NCC2(N(C)C)CCCCC2)cc1` was tested, and the activation was inactive: 1.25% and inactive: 19.4%. `CN(C)c1cccc(C(=O)NCC2(N(C)C)CCCCC2)c1` was tested, and the activation was inactive: -0.44%. For `O=C(NCC1(N2CCCCC2)CCCCC1)c1cc([N+](=O)[O-])ccc1Cl`, the activation was inactive: 0.237%. For `CN1[C@@H]2CC[C@H]1CC(OC(=O)C(O)(c1ccccc1)c1ccccc1)C2` (some centres undefined), the activation was inactive: 8.33%. With `CCN(CC)CC(C)C(C)OC(=O)C(O)(c1ccccc1)c1ccccc1` (centres undefined) the activation was inactive: 1.74%. For `CN(C)C1(CNC(=O)c2cccc(Cl)c2)CCCCC1`, the activation was inactive: 1.95%. In the case of `COc1cc(SC)ccc1C(=O)NCC1(N(C)C)CCCCC1`, the activation is reported as inactive: 1.16%. In the case of `CC(C)N1C(=O)CC2(CCN(CCOC(=O)C(O)(c3ccccc3)c3ccccc3)CC2)C1=O`, the activation is reported as inactive: 4.76%. `Cc1ccc(C(=O)NCC2(N3CCCCC3)CCCCC2)cc1` was tested, and the activation was inactive: 0.0574%. With `CN(C)C1(CNC(=O)c2ccccc2F)CCCCC1` the activation was inactive: 1.24%. `CN(C)C1(CNC(=O)c2ccccc2[N+](=O)[O-])CCCCC1` was tested, and the activation was inactive: 0.25%. With `Cc1ccccc1C(=O)NCC1(N2CCCCC2)CCCCC1` the activation was inactive: -0.331%. With `CN(C)C1CCCC1OC(=O)C(O)(c1ccccc1)c1ccccc1` (centres undefined) the activation was inactive: 14%. With `CN(C)c1ccc(C(=O)NCC2(N(C)C)CCCCC2)cc1` the activation was inactive: -1.22%. With `CCCCOc1ccccc1C(=O)NCC1(N(C)C)CCCCC1` the activation was inactive: 0.175%. For `C=CCN1CCN(CCOC(=O)C(O)(c2ccccc2)c2ccccc2)CC1`, the activation was inactive: 2.95%. For `O=C(NCC1(N2CCCCC2)CCCCC1)c1cc(F)c(F)cc1Cl`, the activation was inactive: 4.7%. With `COc1ccc(C(=O)NCC2(N(C)C)CCCCC2)cc1` the activation was inactive: 5.64%. `CCOc1cccc(C(=O)NCC2(N(C)C)CCCCC2)c1` was tested, and the activation was inactive: -0.314%. With `Cc1cc(C(=O)NCC2(N3CCCCC3)CCCCC2)ccc1[N+](=O)[O-]` the activation was inactive: 2.84%. `CCN1CCCC(OC(=O)C2(O)c3ccccc3C=Cc3ccccc32)C1` (centres undefined) was tested, and the activation was inactive: 4.04%. With `O=C(NCC1(N2CCCCC2)CCCCC1)c1cccc(Br)c1` the activation was inactive: -0.283%.
